{"sequences": {"note": "By UniProt entry, the sequences of proteins in these tests, tags left out. Where a name states a change or a piece, a line headed by the entry shows the natural chain unless it says otherwise.", "UniProt Q02763": "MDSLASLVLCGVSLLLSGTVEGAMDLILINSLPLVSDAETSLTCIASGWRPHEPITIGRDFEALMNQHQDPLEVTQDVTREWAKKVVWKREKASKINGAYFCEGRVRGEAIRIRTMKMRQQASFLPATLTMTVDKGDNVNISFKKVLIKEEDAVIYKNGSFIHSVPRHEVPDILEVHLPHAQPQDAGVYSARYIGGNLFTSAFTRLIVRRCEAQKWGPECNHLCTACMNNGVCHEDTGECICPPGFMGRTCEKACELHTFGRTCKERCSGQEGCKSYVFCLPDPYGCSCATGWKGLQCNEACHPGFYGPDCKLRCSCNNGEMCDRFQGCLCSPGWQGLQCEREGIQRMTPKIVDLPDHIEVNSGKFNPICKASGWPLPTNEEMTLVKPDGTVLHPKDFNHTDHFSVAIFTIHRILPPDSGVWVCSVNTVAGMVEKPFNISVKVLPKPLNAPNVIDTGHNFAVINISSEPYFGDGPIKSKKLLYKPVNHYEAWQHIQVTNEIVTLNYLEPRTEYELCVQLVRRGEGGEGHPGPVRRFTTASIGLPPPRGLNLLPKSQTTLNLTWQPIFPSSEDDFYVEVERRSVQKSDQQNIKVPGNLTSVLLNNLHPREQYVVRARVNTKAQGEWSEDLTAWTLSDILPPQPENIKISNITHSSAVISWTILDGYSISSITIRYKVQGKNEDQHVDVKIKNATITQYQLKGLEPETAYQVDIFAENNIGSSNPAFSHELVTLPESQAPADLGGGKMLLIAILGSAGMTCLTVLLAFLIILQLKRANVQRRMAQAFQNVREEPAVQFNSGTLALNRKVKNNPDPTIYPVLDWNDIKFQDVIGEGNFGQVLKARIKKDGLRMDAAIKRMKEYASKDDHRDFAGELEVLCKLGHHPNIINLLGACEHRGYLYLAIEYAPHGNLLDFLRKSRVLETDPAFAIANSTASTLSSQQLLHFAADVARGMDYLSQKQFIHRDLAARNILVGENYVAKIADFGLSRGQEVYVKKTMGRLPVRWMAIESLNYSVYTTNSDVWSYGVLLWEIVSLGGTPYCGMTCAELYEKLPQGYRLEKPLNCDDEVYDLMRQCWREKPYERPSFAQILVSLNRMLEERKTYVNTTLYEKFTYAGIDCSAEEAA", "UniProt P22607, whole entry": "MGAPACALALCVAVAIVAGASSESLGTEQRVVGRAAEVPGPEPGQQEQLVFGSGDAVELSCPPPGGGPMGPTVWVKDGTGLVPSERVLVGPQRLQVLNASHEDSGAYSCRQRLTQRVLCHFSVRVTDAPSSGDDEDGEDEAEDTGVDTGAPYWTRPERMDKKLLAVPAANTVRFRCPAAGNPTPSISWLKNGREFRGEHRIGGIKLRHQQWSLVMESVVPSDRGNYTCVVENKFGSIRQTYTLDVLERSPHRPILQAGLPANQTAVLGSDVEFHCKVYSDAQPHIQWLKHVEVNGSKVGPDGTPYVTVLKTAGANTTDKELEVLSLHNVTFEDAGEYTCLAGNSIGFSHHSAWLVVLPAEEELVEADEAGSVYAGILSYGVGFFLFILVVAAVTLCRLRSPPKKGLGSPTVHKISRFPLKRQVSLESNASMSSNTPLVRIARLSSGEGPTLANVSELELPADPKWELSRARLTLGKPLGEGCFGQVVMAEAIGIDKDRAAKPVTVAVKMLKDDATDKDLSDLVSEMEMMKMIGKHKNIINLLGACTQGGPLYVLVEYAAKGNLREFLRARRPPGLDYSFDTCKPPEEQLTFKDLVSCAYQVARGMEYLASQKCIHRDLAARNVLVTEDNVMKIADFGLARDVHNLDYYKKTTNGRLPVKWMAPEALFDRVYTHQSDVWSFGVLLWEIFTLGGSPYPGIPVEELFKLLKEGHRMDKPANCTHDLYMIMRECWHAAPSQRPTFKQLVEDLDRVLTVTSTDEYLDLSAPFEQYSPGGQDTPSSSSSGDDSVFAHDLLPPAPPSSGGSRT", "UniProt P00519, whole entry": "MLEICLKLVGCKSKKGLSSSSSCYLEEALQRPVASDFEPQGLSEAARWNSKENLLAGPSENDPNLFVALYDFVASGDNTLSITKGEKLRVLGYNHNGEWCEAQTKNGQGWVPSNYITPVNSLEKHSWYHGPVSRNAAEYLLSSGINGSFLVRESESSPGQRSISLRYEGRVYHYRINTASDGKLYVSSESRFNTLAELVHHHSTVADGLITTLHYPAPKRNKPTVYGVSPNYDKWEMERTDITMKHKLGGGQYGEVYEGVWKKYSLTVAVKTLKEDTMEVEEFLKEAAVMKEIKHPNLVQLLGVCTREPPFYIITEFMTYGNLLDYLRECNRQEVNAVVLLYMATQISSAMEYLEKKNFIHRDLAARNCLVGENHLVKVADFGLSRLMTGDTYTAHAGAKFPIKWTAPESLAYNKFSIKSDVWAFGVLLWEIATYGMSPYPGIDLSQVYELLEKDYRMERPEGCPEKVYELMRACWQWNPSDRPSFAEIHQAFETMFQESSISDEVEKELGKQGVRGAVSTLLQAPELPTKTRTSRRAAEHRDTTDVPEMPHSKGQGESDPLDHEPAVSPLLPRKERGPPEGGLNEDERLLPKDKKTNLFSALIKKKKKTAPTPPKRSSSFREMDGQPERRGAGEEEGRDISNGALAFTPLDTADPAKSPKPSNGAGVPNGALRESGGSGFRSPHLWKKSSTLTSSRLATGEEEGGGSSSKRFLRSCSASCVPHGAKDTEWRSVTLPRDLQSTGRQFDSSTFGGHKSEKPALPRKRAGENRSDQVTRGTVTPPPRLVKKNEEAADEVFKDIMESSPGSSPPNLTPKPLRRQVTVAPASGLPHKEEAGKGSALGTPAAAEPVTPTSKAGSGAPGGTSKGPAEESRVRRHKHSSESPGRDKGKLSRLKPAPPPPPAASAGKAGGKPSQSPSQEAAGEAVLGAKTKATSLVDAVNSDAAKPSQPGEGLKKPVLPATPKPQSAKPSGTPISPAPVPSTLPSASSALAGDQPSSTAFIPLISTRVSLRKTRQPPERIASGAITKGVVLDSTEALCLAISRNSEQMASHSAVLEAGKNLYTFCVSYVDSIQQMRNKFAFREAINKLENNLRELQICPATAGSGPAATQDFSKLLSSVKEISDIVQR"}, "source": "ChEMBL document CHEMBL1955771", "about": "“VX-322: a novel dual receptor tyrosine kinase inhibitor for the treatment of acute myelogenous leukemia” (J Med Chem, 2012)", "key": {"Angiopoietin-1 receptor": {"target": "Angiopoietin-1 receptor (Homo sapiens, UniProt Q02763)", "test": "Inhibition of Tie2"}, "[1]": {"target": "Fibroblast growth factor receptor 3 (Homo sapiens, UniProt P22607)", "test": "Inhibition of FGFR3"}, "[2]": {"target": "Tyrosine-protein kinase ABL1 (Homo sapiens, UniProt P00519)", "test": "Inhibition of ABL"}}}
{"smiles": "Nc1nc(Nc2ccc([C@H]3CC[C@H](N4CCOCC4)CC3)cc2)nn1-c1ccccn1", "values": [{"measurement": "Ki", "setting": "Angiopoietin-1 receptor", "result": 200, "unit": "nM"}, {"measurement": "Ki", "setting": "[1]", "result": 400, "unit": "nM"}, {"measurement": "Ki", "setting": "[2]", "result": 400, "unit": "nM"}]}
